Key:
Assay in all cases: MTT assay on osteosarcoma cells
Format in all cases: cell-based
MG-63 osteosarcoma cells = settings: Homo sapiens, 48 hours, read-out: Inhibitory activity (IC50) MG-63
U2OS osteosarcoma cells = settings: Homo sapiens, 48 hours, read-out: Inhibitory activity (IC50) U2OS
[1] = tested on: SAOS-2 osteosarcoma cells; settings: Homo sapiens, 48 hours, read-out: Inhibitory activity (IC50) SAOS-2
[2] = tested on: MNNG/HOS osteosarcoma cells; settings: 48 hours, read-out: Inhibitory activity (IC50) MNNG/HOS

`Cc1cnc(Nc2ccc(N3CCN(C)CC3)cc2)nc1Nc1ccc2cn[nH]c2c1` [Compound 6g, N^4-(1H-indazol-6-yl)-5-methyl-N^2-(4-(4-methylpiperazine-1-yl)phenyl)pyrimidine-2,4-diamine] showed an IC50 (MG-63 osteosarcoma cells) of 958 ± 7 nM, an IC50 (U2OS osteosarcoma cells) of 552 ± 2.3 nM and an IC50 [1] of 950 ± 1 nM. For the same compound, the IC50 [2] was 1400 ± 3 nM.

From patent US20230312529A1, “PYRIMIDINE SMALL-MOLECULE COMPOUND AND APPLICATION THEREOF” (WENZHOU MEDICAL UNIVERSITY, priority 2021, published 2023)
